Test results from US20200016283A1, “COMBINATION THERAPY COMPRISING A RADIOPHARMACEUTICAL AND A DNA-REPAIR INHIBITOR” (Bayer AS, priority 2017, published 2020).

What was measured:
Assay type in all cases: cell-based
Settings in all cases: Her2-TTC + ATR inhibitor (BAY1895344), viability, 5-7 days
[1] = test system: SK-OV-3 cancer cell line (Ovarian cancer); test: Combination cytotoxicity assay (CellTiter-Glo), SK-OV-3
[2] = test system: BT-474 cancer cell line (Breast cancer); test: Combination cytotoxicity assay (CellTiter-Glo), BT-474
[3] = test system: KPL-4 cancer cell line (Breast cancer); test: Combination cytotoxicity assay (CellTiter-Glo), KPL-4

Measured: Combination Effect

Her2-TTC: HER2-targeted thorium-227 conjugate, prepared according to Examples 5a and 5b of WO 2016/096843
Synergistic: all assays above
